From US20200231974A1 (published 2020) come the findings set out here.

This test has as its target T1, HCMV pp65 peptide on HLA-B*07:02 (human).
T1 peptide: TPRVTGGGAM
Put plainly: multimer staining.

B1: HBD4.1.S9-3.A1 (SEQ0711 and SEQ0712) (TCR, V domains shown)
Valpha: TQLLEQSPQFLSIQEGENLTVYCNSSSVFSSLQWYRQEPGEGPVLLVTVVTGGEVKKLKRLTFQFGDARKDSSLHITAAQPGDTGLYLCAGARGGFKTIFGAGTRLFVKA
Vbeta: EAQVTQNPRYLITVTGKKLTVTCSQNMNHEYMSWYRQDPGLGLRQIYYSMNVEVTDKGDVPEGYKVSRKEKRNFPLILESPSPNQTSLYFCASSLSPSTGNYGYTFGSGTRLTVV
With B1, the binding result is listed as “recognises”.
